Measurements as given in US8759377B2, “Substituted dioxopiperidines and dioxopyrrolidines as MGLUR4 allosteric potentiators, compositions, and methods of treating neurological dysfunction” (Vanderbilt University, priority 2009, dated 2014).

Amino acid sequences for entries named in this document (tags omitted). Residues count along the entry.
UniProt Q14833, 33-912: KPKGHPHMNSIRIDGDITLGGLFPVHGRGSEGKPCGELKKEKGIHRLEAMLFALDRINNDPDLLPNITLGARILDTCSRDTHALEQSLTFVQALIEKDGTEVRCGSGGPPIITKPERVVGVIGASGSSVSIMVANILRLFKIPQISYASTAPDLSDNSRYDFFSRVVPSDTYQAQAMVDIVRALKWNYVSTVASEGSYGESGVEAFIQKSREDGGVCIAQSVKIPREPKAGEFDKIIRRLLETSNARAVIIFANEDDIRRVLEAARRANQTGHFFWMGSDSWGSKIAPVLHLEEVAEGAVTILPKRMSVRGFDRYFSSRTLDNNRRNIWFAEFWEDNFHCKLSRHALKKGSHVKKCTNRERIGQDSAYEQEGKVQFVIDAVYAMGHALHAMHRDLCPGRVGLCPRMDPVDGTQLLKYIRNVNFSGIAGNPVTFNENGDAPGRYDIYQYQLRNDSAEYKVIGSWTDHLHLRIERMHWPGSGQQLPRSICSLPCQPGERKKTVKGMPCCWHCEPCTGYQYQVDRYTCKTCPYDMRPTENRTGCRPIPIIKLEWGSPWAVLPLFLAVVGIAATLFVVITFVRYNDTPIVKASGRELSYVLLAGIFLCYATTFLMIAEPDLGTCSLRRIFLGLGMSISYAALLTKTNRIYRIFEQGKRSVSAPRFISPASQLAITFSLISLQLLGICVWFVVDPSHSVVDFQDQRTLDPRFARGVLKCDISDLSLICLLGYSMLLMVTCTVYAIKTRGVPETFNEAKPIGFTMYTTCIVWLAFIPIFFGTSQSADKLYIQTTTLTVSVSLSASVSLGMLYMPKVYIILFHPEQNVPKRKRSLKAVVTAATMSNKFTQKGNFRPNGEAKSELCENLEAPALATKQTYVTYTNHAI

Molecular target: T1, human mGluR4 (Homo sapiens, UniProt Q14833)
T1 construct: expressed in transfected cells; host or cells: CHO cells
Test: human mGluR4 potentiation, Ca2+-sensitive dye fluorescence assay in transfected CHO cells
Format: cell-based
Settings: EC50 for potentiation, human mGluR4, with EC20 concentration of agonist; read-out: hEC50
Experimental: The disclosed compounds and compositions can be evaluated for their ability to act as a potentiator of metabotropic glutamate receptor activity, in particular mGluR4 activity, by any suitable known methodology known in the art. For example, Chinese Hamster Ovary (CHO) cells transfected with human mGluR4 or HEK cells co-transfected with rat mGluR4 and the G-protein regulated Inwardly Rectifying Potassium channel (GIRK) were plated in clear bottom assay plates for assay in a Hamamatsu FDSS Fluorometric Plate Reader. The cells were loaded with either a Ca2+-sensitive fluorescent dye or the thallium responsive dye and the plates were washed and placed into a suitable kinetic plate reader. For human mGluR4 assays, a fluorescence baseline was established for 3-5 seconds, the disclosed compounds were then added to the cells, and the response in cells was measured. Approximately two and a half minutes later, a concentration of mGluR4 orthosteric agonist (e.g. glutamate or L-AP4) eliciting approximately 20% (EC20) of the maximal agonist response was added to the cells, and the response was measured. Two minutes later, a concentration of mGluR4 agonist (e.g. glutamate or L-AP4) eliciting 80% (EC80) of the maximal agonist response was added to the cells, and the response was measured. […]

Structure (SMILES) | EC50
O=C(Nc1ccc(N2C(=O)CC(c3ccccc3)C2=O)c(Cl)c1)c1ccccn1 (centres unmarked) [Example 3, N-(3-chloro-4-(2,5-dioxo-3-phenylpyrrolidin-1-yl)phenyl)picolinamide] | 771 nM
O=C(Nc1ccc(N2C(=O)CC3(CCCCC3)C2=O)c(Cl)c1)c1ccccn1 [Example 15, N-(3-chloro-4-(1,3-dioxo-2-azaspiro[4.5]decan-2-yl)phenyl)picolinamide] | 135 nM
